# From US20150216937A1, “METHODS FOR TREATING NEOPLASIA” (Altor BioScience Corporation, priority 2012, published 2015)
# Tests used:
# [1] = system: MB49luc orthotopic muscle invasive bladder tumors; test: ALT-801 versus IL-2 in orthotopic MB49luc model; assay type: in vivo, C57BL/6 mice; settings: i.v. days 7, 10, 14, 17; ALT-801 1.6 mg/kg vs IL-2 and PBS P≦0.0002; IL-2 0.42 mg/kg vs PBS P=0.84
# Description: The anti-tumor effect of ALT-801 and IL-2 intravenous treatment was evaluated in a mouse bladder orthotopic model in immunocompetent C57BL/6 mice. C57BL/6 mice (10-11 weeks old) were instilled intravesically with MB49luc cells (3×10^4 cells/bladder in 100 μL) on day 0 following polylysine pretreatment of the bladder. ALT-801 (1.6 mg/kg, n=8), IL-2 (0.42 mg/kg, n=8) or PBS (100 μL, n=8) was administered i.v. on 7, 10, 14 and 17 days post tumor cell instillation.
# [2] = system: cisplatin-refractory advance/metastatic urothelial carcinoma; settings: systemic administration; vs 6-7 months with salvage chemotherapy; cited from earlier work
# [3] = system: CD8+CD44high memory T cells; test: In vivo CD8+CD44high memory T cell phenotype and adoptive transfer; parameters: species or system C57BL/6 mice; settings: Celltrace Violet-labeled splenocytes; naïve C57BL/6 recipients
# Description: It has been shown recently that cytokine-mediated stimulation could promote antigen-nonspecific expansion of memory CD8^+ cells with a unique phenotype. […] Without being bound to a particular theory, ALT-801 activation of this type of memory CD8^+ T cell plays a major role in the anti-MB49luc tumor activity in mice. To evaluate this possibility, it was first examined whether ALT-801 alone could induce memory CD8^+ T cell expansion in-vitro. The phenotype of CD8^+CD44^high T cells were compared after activation with ALT-801 or anti-CD3 antibody (TCR-dependent engagement). […] To examine whether a similar phenomenon occurs in-vivo, non-tumor bearing mice were injected intravenously with ALT-801 at 1.6 mg/kg (in 100 μL) or PBS (100 μL) twice (72 hours apart) and the phenotypes of PBMCs and splenocytes were analyzed one day after the second PBS or ALT-801 treatment. […]
# In this study, Celltrace™ Violet-labeled splenocytes (0.5×10^6) were adoptively transferred from naïve C57BL/6 mice into naïve isogenic C57BL/6 mice and then the mice were treated with ALT-801 or PBS intravenously one day after the adoptive cell transfer. The phenotypes of the CD8^+CD44^high T cells from the spleens of the recipient mice were then analyzed one day after the second ALT-801 or PBS treatment. […]
substance,measurement,setting,value
IL-2: recombinant human IL-2,survival of mice / anti-tumor effect,[1],no anti-tumor effect
same,median survival,[2],over 10 months
same,proliferation of adoptively transferred CD8+CD44high T cells,[3],but not
